By UniProt entry, the sequences of proteins in these tests, tags left out.
UniProt P51681, whole entry: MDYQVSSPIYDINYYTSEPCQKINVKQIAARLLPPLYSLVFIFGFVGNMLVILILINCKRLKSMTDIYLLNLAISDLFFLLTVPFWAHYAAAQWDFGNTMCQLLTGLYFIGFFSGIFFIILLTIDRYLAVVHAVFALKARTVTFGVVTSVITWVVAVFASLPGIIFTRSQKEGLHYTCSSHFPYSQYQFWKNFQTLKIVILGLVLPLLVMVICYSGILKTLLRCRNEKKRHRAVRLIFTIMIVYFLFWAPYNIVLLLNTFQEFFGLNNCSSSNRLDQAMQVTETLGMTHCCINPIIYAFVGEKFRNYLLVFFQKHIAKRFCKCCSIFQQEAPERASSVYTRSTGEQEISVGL

According to US20080021038A1, “Novel Piperidine/8-Azabicyclo [3.2.1.] Octan Derivatives As Modulators Of Chemokine Receptor Ccr5” (priority 2004, published 2008):

Each molecule was assayed against recombinant human CCR5 receptor (Homo sapiens, UniProt P51681) (assay: MIP-1α radioligand binding assay (scintillation proximity)). Conditions: displacement of 0.1 nM iodinated MIP-1α; membranes from Chinese hamster ovary cells expressing recombinant human CCR5; average if tested more than once.
Procedure: The ability of compounds to inhibit the binding of MIP-1α was assessed by an in vitro radioligand binding assay. Membranes were prepared from Chinese hamster ovary cells which expressed the recombinant human CCR5 receptor. These membranes were incubated with 0.1 nM iodinated MIP-1α, scintillation proximity beads and various concentrations of the compounds of the invention in 96-well plates. The amount of iodinated MIP-1α bound to the receptor was determined by scintillation counting. Competition curves were obtained for compounds and the concentration of compound which displaced 50% of bound iodinated MIP-1α was calculated (IC50).
In Table X the results are presented as Pic50 values. A Pic50 value is the negative log (to base 10) of the IC50 result, so an IC50 of 1 μM (that is 1×10^−6M) gives a Pic50 of 6. If a compound was tested more than once then the data below is an average of the probative tests results.

Row | Compound | Pic50
1 | CS(=O)(=O)c1ccc(S(=O)(=O)CCC2(C#N)CCN(CC[C@@H](c3cc(F)cc(F)c3)C3CCN(S(C)(=O)=O)CC3)CC2)cc1 | 9.4
2 | CS(=O)(=O)c1ccc(S(=O)(=O)CCC2(F)CCN(CC[C@H](NC(=O)C3CCC(F)(F)CC3)c3ccccc3)CC2)cc1 | 9.5
3 | COc1ccc(S(=O)(=O)CCC2(O)CCN(CC[C@@H](c3cc(F)cc(F)c3)C3CCN(S(C)(=O)=O)CC3)CC2)cc1 | 9.5
4 | CCC1(CCS(=O)(=O)c2ccc(S(C)(=O)=O)cc2)CCN(CC[C@H](c2ccc(S(C)(=O)=O)cc2)c2cc(F)cc(F)c2)CC1 | 8.0
5 | CC1(CCS(=O)(=O)c2ccc(S(C)(=O)=O)cc2)CCN(CCC(c2ccccc2)C2CCN(S(C)(=O)=O)CC2)CC1 (stereo not shown) | 9.2
6 | CCC1(CCS(=O)(=O)c2ccc(S(C)(=O)=O)cc2)CCN(CC[C@@H](c2cc(F)cc(F)c2)C2CCN(S(C)(=O)=O)CC2)CC1 | 8.3
7 | COC1(CCS(=O)(=O)c2ccc(S(C)(=O)=O)cc2)CCN(CC[C@@H](c2cc(F)cc(F)c2)C2CCN(S(C)(=O)=O)CC2)CC1 | 9.3
8 | Cn1ccnc1CC1(O)CCN(CC[C@@H](c2cc(F)cc(F)c2)C2CCN(S(C)(=O)=O)CC2)CC1 | 6.3
9 | CCN(C(=O)Cc1ccc(S(C)(=O)=O)cc1)C1(C)CCN(CC[C@@H](c2cc(F)cc(F)c2)C2CCN(S(C)(=O)=O)CC2)CC1 | 8.0
10 | COc1ccc(S(=O)(=O)CCC2(OC)CCN(CC[C@@H](c3cc(F)cc(F)c3)C3CCN(S(C)(=O)=O)CC3)CC2)cc1 | 9.3
11 | Cn1ccnc1C1(O)C[C@H]2CC[C@@H](C1)N2CC[C@@H](c1cc(F)cc(F)c1)C1CCN(S(C)(=O)=O)CC1 (stereo partly shown) | 7.3
12 | CCC1(NC(=O)Cc2ccc(S(C)(=O)=O)cc2)CCN(CC[C@H](c2ccc(S(C)(=O)=O)cc2)c2cc(F)cc(F)c2)CC1 | 5.8
13 | CS(=O)(=O)c1ccc([C@@H](CCN2CCC(C#N)(CCS(=O)(=O)c3ccc(S(C)(=O)=O)cc3)CC2)c2cc(F)cc(F)c2)cc1 | 8.5
14 | CC1([C@@H](CCN2CCC(C#N)(CCS(=O)(=O)c3ccc(S(C)(=O)=O)cc3)CC2)c2cc(F)cc(F)c2)CCOCC1 | 7.7
15 | COC1(CCS(=O)(=O)c2ccc(S(C)(=O)=O)cc2)CCN(CC[C@@H](c2cc(F)cc(F)c2)C2CCOCC2)CC1 | 9.5
16 | CS(=O)(=O)c1ccc(S(=O)(=O)CCC2(F)CCN(CC[C@@H](c3cc(F)cc(F)c3)C3CCS(=O)(=O)CC3)CC2)cc1 | 9.4
17 | CC1(n2cnc3cc(S(C)(=O)=O)ccc32)CCN(CC[C@H](c2ccc(S(C)(=O)=O)cc2)c2cc(F)cc(F)c2)CC1 | 8.3
18 | CS(=O)(=O)c1ccc([C@@H](CCN2CCC(F)(CCS(=O)(=O)c3ccc(S(C)(=O)=O)cc3)CC2)c2cc(F)cc(F)c2)cc1 | 8.9
19 | CC1(CCS(=O)(=O)C2CCOCC2)CCN(CC[C@@H](c2cc(F)cc(F)c2)C2CCN(S(C)(=O)=O)CC2)CC1 | 8.3
20 | CS(=O)(=O)c1ccc(CC2(O)CCN(CC[C@@H](c3cc(F)cc(F)c3)C3CCN(S(C)(=O)=O)CC3)CC2)cc1 | 8.1
21 | CS(=O)(=O)c1ccc(S(=O)(=O)CCC2(F)CCN(CC[C@@H](c3cc(F)cc(F)c3)C3CCOCC3)CC2)cc1 | 9.3
22 | CC1(CCS(=O)(=O)c2ccc(S(C)(=O)=O)cc2)CCN(CC[C@@H](c2cc(F)cc(F)c2)C2CCS(=O)(=O)CC2)CC1 | 9.5
